Experiments:
[1] = biological target: PI3K-α (PIK3CA) wild-type (WT), p110α/p85α complex (Homo sapiens, UniProt P42336); assay: PI3K-alpha kinase (PIK3CA) biochemical activity, ADP-Glo, wild-type; conditions: read-out: IC50 WT, Soy PI lipid substrate, tested form: TFA
Description: (§1) PI3K-Alpha Kinase (PIK3CA) Activity, Wild-Type and H1047R Mutant and Determining IC50 Values for Inhibitors
(§2) Recombinant, catalytically active human full length PIK3KA Wild-type and H1047R mutant were purchased as 1:1 complex of N-terminal 6×his tagged p110α (catalytic) and untagged p85α (regulatory subunit) from EMD Millipore Sigma (cat. no. 14-602M and 14-792M, respectively). PIP2diC8 (Avanti Polar Lipids Inc., cat. no. 850185) or Soy PI (Avanti Polar Lipids Inc., cat. No. 840044P) was used as lipid substrate. PIP2diC8 or PI lyophilized powder was dissolved in milliQ water to a concentration of 1 mM just before use. 10 mM stock compounds in DMSO were serially diluted 1:3 to generate a 10-point curve and plated using an acoustic liquid handler system (Echo 550 series instrument, Labcyte). […] Then, 10 uL of Kinase Detection Reagent (ADP-Glo Kinase assay kit, Promega cat. no. V9102) was added to simultaneously convert ADP to ATP and allow the newly synthesized ATP to be measured using a luciferase/luciferin reaction. After 30 min at room temperature the light generated was measured using a luminometer (EnVision plate reader, Perkin Elmer). […] Relative IC50 values are determined using luminescence units by calculating percent inhibition with respect to on-plate “MIN” and “MAX” controls. […]

By UniProt entry, the sequences of proteins in these tests, tags left out. Where a name states a change or a piece, a line headed by the entry shows the natural chain unless it says otherwise.
UniProt P42336, whole entry: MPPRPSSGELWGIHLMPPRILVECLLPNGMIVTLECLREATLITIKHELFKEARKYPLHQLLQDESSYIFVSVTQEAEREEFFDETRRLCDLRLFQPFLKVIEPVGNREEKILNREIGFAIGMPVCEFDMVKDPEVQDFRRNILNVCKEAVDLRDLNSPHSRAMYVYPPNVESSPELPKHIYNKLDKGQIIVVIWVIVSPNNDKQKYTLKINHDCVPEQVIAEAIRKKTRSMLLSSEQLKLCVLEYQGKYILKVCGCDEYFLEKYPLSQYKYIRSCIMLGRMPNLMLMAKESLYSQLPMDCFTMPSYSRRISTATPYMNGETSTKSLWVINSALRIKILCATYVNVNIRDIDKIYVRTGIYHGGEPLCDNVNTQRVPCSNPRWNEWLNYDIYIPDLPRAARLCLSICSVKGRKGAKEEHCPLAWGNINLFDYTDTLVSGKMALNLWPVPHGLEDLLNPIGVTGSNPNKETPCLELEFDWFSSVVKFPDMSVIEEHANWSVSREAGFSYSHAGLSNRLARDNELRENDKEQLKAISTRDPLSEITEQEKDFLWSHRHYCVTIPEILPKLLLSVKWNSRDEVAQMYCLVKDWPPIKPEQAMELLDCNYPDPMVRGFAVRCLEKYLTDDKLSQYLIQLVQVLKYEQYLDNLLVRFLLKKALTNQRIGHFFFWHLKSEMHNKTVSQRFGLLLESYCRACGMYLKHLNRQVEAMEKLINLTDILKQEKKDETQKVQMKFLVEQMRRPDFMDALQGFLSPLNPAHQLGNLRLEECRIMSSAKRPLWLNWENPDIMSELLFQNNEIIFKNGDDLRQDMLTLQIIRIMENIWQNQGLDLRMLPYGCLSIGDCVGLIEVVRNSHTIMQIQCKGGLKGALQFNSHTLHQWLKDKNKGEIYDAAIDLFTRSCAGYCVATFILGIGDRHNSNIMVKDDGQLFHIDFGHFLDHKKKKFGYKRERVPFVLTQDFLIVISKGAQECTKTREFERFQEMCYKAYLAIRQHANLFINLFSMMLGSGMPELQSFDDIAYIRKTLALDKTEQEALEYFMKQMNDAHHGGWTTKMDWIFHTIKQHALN
UniProt P42336, whole entry H1047R: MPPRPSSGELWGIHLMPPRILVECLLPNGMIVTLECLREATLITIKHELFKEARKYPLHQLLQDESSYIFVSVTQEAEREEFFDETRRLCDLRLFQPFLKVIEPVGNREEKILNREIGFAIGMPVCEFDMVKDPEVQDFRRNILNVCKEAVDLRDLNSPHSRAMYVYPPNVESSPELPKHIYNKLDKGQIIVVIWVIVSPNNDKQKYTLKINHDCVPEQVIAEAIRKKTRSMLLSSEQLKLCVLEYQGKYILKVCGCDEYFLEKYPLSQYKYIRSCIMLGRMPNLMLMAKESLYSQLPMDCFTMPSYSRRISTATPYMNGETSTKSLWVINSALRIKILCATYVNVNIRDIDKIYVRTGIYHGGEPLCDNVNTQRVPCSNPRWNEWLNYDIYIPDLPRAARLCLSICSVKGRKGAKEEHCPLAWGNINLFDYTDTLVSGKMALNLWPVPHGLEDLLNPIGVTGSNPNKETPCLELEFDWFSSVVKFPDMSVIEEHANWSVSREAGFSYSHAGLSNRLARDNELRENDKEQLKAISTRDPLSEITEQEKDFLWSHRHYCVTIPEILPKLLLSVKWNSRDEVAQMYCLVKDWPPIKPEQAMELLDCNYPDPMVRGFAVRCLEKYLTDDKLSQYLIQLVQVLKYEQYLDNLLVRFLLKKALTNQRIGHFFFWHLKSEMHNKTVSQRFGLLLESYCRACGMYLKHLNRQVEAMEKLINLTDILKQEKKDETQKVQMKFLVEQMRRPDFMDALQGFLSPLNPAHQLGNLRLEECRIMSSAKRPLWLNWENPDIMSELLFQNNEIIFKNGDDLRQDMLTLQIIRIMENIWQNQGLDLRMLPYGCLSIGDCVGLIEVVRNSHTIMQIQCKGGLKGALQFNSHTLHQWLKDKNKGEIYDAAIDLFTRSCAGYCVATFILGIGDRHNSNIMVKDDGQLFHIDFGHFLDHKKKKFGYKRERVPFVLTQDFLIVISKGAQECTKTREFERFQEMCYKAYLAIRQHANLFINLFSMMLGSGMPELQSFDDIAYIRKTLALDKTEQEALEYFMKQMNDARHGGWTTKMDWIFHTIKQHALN
UniProt P27986, whole entry partner: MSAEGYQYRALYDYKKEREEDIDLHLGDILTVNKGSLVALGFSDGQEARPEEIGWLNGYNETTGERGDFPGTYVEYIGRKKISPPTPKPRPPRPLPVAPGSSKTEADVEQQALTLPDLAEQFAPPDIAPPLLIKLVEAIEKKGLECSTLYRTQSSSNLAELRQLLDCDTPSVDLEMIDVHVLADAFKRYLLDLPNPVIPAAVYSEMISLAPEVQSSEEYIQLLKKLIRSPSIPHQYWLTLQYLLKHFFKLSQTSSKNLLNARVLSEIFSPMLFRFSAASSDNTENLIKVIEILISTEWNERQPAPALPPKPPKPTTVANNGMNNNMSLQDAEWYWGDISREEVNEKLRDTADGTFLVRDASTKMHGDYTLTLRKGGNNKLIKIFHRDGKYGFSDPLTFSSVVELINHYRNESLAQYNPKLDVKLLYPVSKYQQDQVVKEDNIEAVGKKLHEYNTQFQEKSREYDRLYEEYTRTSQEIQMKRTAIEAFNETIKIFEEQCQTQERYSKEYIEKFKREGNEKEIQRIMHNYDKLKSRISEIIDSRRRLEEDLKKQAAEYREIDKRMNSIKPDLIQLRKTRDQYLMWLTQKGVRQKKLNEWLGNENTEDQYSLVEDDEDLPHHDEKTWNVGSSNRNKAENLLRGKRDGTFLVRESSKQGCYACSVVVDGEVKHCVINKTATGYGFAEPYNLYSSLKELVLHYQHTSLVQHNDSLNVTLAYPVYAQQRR

[2] = biological target: PI3K-α (PIK3CA) H1047R mutant, p110α/p85α complex (Homo sapiens, UniProt P42336, H1047R); assay: PI3K-alpha kinase (PIK3CA) biochemical activity, ADP-Glo, H1047R mutant; conditions: read-out: IC50 H1047R, Soy PI lipid substrate, tested form: TFA
Description: as §1, §2

Molecule `Cc1cc(C(C)Nc2ccccc2C(=O)O)c2oc(-c3cnc4cn(C)nc4c3)cc(=O)c2c1` (centres unmarked) has an IC50 [1] of 5 to 10 µM and an IC50 [2] of 1 to 5 µM.

From patent publication US11878970B2, “Allosteric chromenone inhibitors of phosphoinositide 3-kinase (PI3K) for the treatment of disease” (Petra Pharma Corporation, priority 2021, dated 2024)
